The entries are a selection whose mix differs from that of the whole data set. Some tests of the compounds listed are not included; inactive here does not mean inactive elsewhere. The source made the active and inactive calls. The call rests on the fitted dose curve; in most records, active means well fitted inhibition curve with a large enough effect; inconclusive means small, poorly fitted or top-dose-only effect; inactive means flat fitted curve, though single readings scatter.
On the % scale 0 is the no-effect control and ±100 the full control effect.

This test addresses Luciferin 4-monooxygenase (Photuris pensylvanica) (UniProt Q27757). Kind of test: Counterscreen for Luciferase (Kinase-Glo TM) Inhibition. Further: nearly all actives have a fitted effect of over 60% in size. Particulars: ATP luminescence, 8 min; at 38.3 µM (top of the series) unless noted. As to the method: NCGC Assay Overview: NIH Molecular Libraries Screening Centers Network [MLSCN] NIH Chemical Genomics Center [NCGC] MLSCN Grant: None Luciferase (Kinase-Glo, Promega Corporation) was assayed for its ability to generate light using ATP and luciferin as substrates. The ATP concentration in the assay (10 uM) was within the linear range of enzyme activity for the assay conditions used.
NCGC Assay Protocol Summary: Four uL of substrate mix (final concentration, 50 mM imidazole pH 7.2, 50 mM KCl, 7 mM MgCl2, 10 uM ATP, 0.01% Tween 20, 0.05% BSA) was dispensed into white 1536 well plates. Twenty-three nL of compound was delivered by a pin tool and 2 uL of luciferase detection mix (Kinase-Glo, Promega)) was added. Following 8-minute incubation at ambient temperature, luminescence was measured by a ViewLux (Perkin Elmer) at 5 seconds exposure/plate.
On the technique in general: Counterscreens check selectivity or assay interference.
Consider `CC(C)N1C(=O)CC2(CCN(CCOC(=O)C(O)(c3ccccc3)c3ccccc3)CC2)C1=O`, for which the activity change, negative = inhibition is inactive: 1.12%.

As for `C=CCN1CCN(CCOC(=O)C(O)(c2ccccc2)c2ccccc2)CC1`, the activity change, negative = inhibition is inactive: -1.48%.

As to `CCN1CCCC(OC(=O)C2(O)c3ccccc3C=Cc3ccccc32)C1` (stereo unspecified), the activity change, negative = inhibition is inactive: -8.63%.

On to `CN(C)C1CCCC1OC(=O)C(O)(c1ccccc1)c1ccccc1` (stereo unspecified), for which the activity change, negative = inhibition is inactive: 4.09%.

With `Cc1ccccc1C(=O)NCC1(N2CCCCC2)CCCCC1`, the activity change, negative = inhibition is inactive: -0.483%.

As to `COc1cccc(C(=O)NCC2(N3CCCCC3)CCCCC2)c1`, the activity change, negative = inhibition was inactive: -0.627%.

Take `CN(C)c1cccc(C(=O)NCC2(N(C)C)CCCCC2)c1`: the activity change, negative = inhibition is inactive: -8.58%.

Take `CN1CCC[C@H](OC(=O)[C@](O)(c2ccccc2)C2CCCC2)C1`: the activity change, negative = inhibition was inactive: -5.95% [at 7.66 µM].

Take `CN1CC[C@H](OC(=O)[C@](O)(c2ccccc2)C2CCCC2)C1`: the activity change, negative = inhibition is inactive: -5.73% [at 7.66 µM].

`O=C(OC1CN2CCC1CC2)C(CO)(c1ccccc1)c1ccccc1` (stereo unspecified): the activity change, negative = inhibition was inactive: 0.415%.

`C=C(C)C#C[C@@](O)(C(=O)OC1CCN(C)CC1)c1ccccc1`: the activity change, negative = inhibition is inactive: -0.787% [at 7.66 µM].

Values taken from PubChem BioAssay AID1379 (National Center for Advancing Translational Sciences (NCATS), 2008).
